This is an account of results in patent US8093380B2, “Compounds with the bicyclo[4.2.1]nonane system for the treatment of Flaviviridae infections” (Pharmasset, Inc., priority 2002, dated 2012).

The test system of this experiment is HCV replicon. The experiment can be described thus: HCV replicon system in Huh7 cells (real-time RT-PCR of replicon RNA). It is filed as cell-based. The conditions noted are these: positive control; concentration not given. On the procedure:
The HCV replicon system in Huh7 cells.
Huh7 cells harboring the HCV replicon were cultivated in DMEM medium (high glucose, no pyruvate), supplemented with 10% fetal bovine serum, 1× non-essential amino acids, Pen-Strep-Glu (100 units/liter, 100 microgram/liter, and 2.92 mg/liter, respectively), and G418 (500 to 1000 microgram/milliliter). Antiviral screening assays were also done in the same medium without G418 as follows. To keep the cells in the logarithmic growth phase, cells were seeded in 96-well plates at low density (for example, 1000 cells per well). The test compound was then added immediately after seeding the cells, and they were incubated for 3 to 7 days at 37° C. in an incubator. The medium was then removed, and the cells were prepared for total RNA extraction (replicon RNA+host RNA). Replicon RNA was then amplified in a real-time RT-PCR (Q-RT-PCR) protocol, and quantified.
The observed differences in quantification of replicon RNA are one way to express the antiviral potency of the test compound. […] This can be concluded because the measured threshold-cycle for HCV RT-PCR in both settings was approximately the same. In such experiments, a way to express the antiviral effectiveness of a compound is to subtract the average threshold RT-PCR cycle of the negative control (Ctnegative) from the threshold RT-PCR cycle of the test compound (Cttestcompound). […]
Background: A replicon is a self-replicating genome or part of one, used to study replication in cells.

For “recombinant interferon alfa-2a: recombinant interferon alfa-2a (Roferon-A, Hoffmann-Roche, NJ, USA), positive control [reference compound]”, the “HCV ΔCt” value is recorded as 7.
